Laboratory results as given in PubChem BioAssay (NCI).
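Exposure lasted 48 hours, with cells grown in 96-well plates and compounds tested at five concentrations. GI50: concentration for 50% inhibition of growth. TGI denotes the concentration required for complete inhibition of growth.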

Legend:
Assay in all cases: growth of human tumour cells (NCI), 48 h
MCF7 breast = system: MCF7 breast
HL-60(TB) leukemia = system: HL-60(TB) leukemia
COLO 205 colon = system: COLO 205 colon
NCI-H226 lung = system: NCI-H226 lung
T-47D breast = system: T-47D breast
SK-MEL-28 melanoma = system: SK-MEL-28 melanoma
U251 CNS = system: U251 CNS
M14 melanoma = system: M14 melanoma
TK-10 renal = system: TK-10 renal
KM12 colon = system: KM12 colon
CAKI-1 renal = system: CAKI-1 renal
UO-31 renal = system: UO-31 renal
OVCAR-8 ovarian = system: OVCAR-8 ovarian
RXF 393 renal = system: RXF 393 renal
PC-3 prostate = system: PC-3 prostate
SW-620 colon = system: SW-620 colon
HCT-15 colon = system: HCT-15 colon
OVCAR-5 ovarian = system: OVCAR-5 ovarian
LOX IMVI melanoma = system: LOX IMVI melanoma
UACC-257 melanoma = system: UACC-257 melanoma
SK-MEL-5 melanoma = system: SK-MEL-5 melanoma
NCI-H522 lung = system: NCI-H522 lung
SF-539 CNS = system: SF-539 CNS
HT29 colon = system: HT29 colon
NCI-H322M lung = system: NCI-H322M lung
BT-549 breast = system: BT-549 breast
SNB-75 CNS = system: SNB-75 CNS
A549 NSCLC = system: A549 NSCLC
DU-145 prostate = system: DU-145 prostate
HOP-92 NSCLC = system: HOP-92 NSCLC
K-562 leukemia = system: K-562 leukemia
NCI-H460 lung = system: NCI-H460 lung
ACHN renal = system: ACHN renal
CCRF-CEM leukemia = system: CCRF-CEM leukemia
HS 578T breast = system: HS 578T breast
UACC-62 melanoma = system: UACC-62 melanoma
MDA-N = system: MDA-N
MALME-3M melanoma = system: MALME-3M melanoma
SR leukemia = system: SR leukemia
786-0 renal = system: 786-0 renal
SK-OV-3 ovarian = system: SK-OV-3 ovarian
IGROV1 ovarian = system: IGROV1 ovarian
SF-268 CNS = system: SF-268 CNS
OVCAR-3 ovarian = system: OVCAR-3 ovarian
NCI/ADR-RES ovarian = system: NCI/ADR-RES ovarian
SK-MEL-2 melanoma = system: SK-MEL-2 melanoma
MDA-MB-435 = system: MDA-MB-435
HCT-116 colon = system: HCT-116 colon
MOLT-4 leukemia = system: MOLT-4 leukemia
SNB-19 CNS = system: SNB-19 CNS
NCI-H23 lung = system: NCI-H23 lung
SN12C renal = system: SN12C renal
SF-295 CNS = system: SF-295 CNS
EKVX NSCLC = system: EKVX NSCLC
OVCAR-4 ovarian = system: OVCAR-4 ovarian
RPMI-8226 leukemia = system: RPMI-8226 leukemia
MDA-MB-231 breast = system: MDA-MB-231 breast
HCC-2998 colon = system: HCC-2998 colon
A498 renal = system: A498 renal
KM20L2 colon = system: KM20L2 colon
LXFL 529 NSCLC = system: LXFL 529 NSCLC
DLD-1 colon = system: DLD-1 colon
DMS 114 small cell lung = system: DMS 114 small cell lung
DMS 273 small cell lung = system: DMS 273 small cell lung
HOP-62 NSCLC = system: HOP-62 NSCLC

In the case of NP(=O)(OCc1ccc([N+](=O)[O-])s1)N(CCBr)CCBr (stereo not given), the TGI (MCF7 breast) is reported as 2.59 µM, the TGI (HL-60(TB) leukemia) is reported as 0.46 µM and the TGI (COLO 205 colon) is reported as 4.92 µM. For the same molecule, the TGI (NCI-H226 lung) was 1.93 µM, the TGI (T-47D breast) was 13.9 µM and the TGI (SK-MEL-28 melanoma) was 6.22 µM. It also gave a TGI (U251 CNS) of 10.4 µM, a TGI (M14 melanoma) of 2.32 µM and a TGI (TK-10 renal) of 12.3 µM. It also gave a TGI (KM12 colon) of 2.97 µM, a TGI (CAKI-1 renal) of 0.935 µM and a TGI (UO-31 renal) of 3.35 µM. For the same molecule, the TGI (OVCAR-8 ovarian) was 2.95 µM, the TGI (RXF 393 renal) was 2.35 µM and the TGI (PC-3 prostate) was 8.45 µM. It also gave a TGI (SW-620 colon) of 5.84 µM, a TGI (HCT-15 colon) of 1.1 µM and a TGI (OVCAR-5 ovarian) of 4.99 µM. The TGI (LOX IMVI melanoma) was 3.14 µM, the TGI (UACC-257 melanoma) was 3.15 µM and the TGI (SK-MEL-5 melanoma) was 1.95 µM. The TGI (NCI-H522 lung) was 0.925 µM, the TGI (SF-539 CNS) was 2.5 µM and the TGI (HT29 colon) was 5.62 µM. For the same molecule, the TGI (NCI-H322M lung) was 13.2 µM, the TGI (BT-549 breast) was 0.487 µM and the TGI (SNB-75 CNS) was 2.59 µM. The TGI (A549 NSCLC) was 3.46 µM, the TGI (DU-145 prostate) was 12.7 µM and the TGI (HOP-92 NSCLC) was 3.21 µM. The TGI (K-562 leukemia) was 23.9 µM, the TGI (NCI-H460 lung) was 1.47 µM and the TGI (ACHN renal) was 3.06 µM. The TGI (CCRF-CEM leukemia) was 5.26 µM, the TGI (HS 578T breast) was 6.44 µM and the TGI (UACC-62 melanoma) was 1.63 µM. It also gave a TGI (MDA-N) of 3.54 µM, a TGI (MALME-3M melanoma) of 4.49 µM and a TGI (SR leukemia) of 0.245 µM. It also gave a TGI (786-0 renal) of 4.92 µM, a TGI (SK-OV-3 ovarian) of 11.6 µM and a TGI (IGROV1 ovarian) of 2.9 µM. The TGI (SF-268 CNS) was 5.6 µM, the TGI (OVCAR-3 ovarian) was 2.85 µM and the TGI (NCI/ADR-RES ovarian) was 11.7 µM. It also gave a TGI (SK-MEL-2 melanoma) of 8.35 µM, a TGI (MDA-MB-435) of 2.77 µM and a TGI (HCT-116 colon) of 15.3 µM. It also gave a TGI (MOLT-4 leukemia) of 0.576 µM, a TGI (SNB-19 CNS) of 15.1 µM and a TGI (NCI-H23 lung) of 1.66 µM. It also gave a TGI (SN12C renal) of 7.58 µM, a TGI (SF-295 CNS) of 4.36 µM and a TGI (EKVX NSCLC) of 4.75 µM. The TGI (OVCAR-4 ovarian) was 3.26 µM, the TGI (RPMI-8226 leukemia) was 21.8 µM and the TGI (MDA-MB-231 breast) was 9.73 µM. The TGI (HCC-2998 colon) was 2.04 µM and the TGI (A498 renal) was 2.94 µM.

CC1(C)OC2OC3COP(=O)(N(CCCl)CCCl)OC3C2O1 (stereo not given) was tested, and the GI50 (HL-60(TB) leukemia) was greater than 100 µM, the TGI (HL-60(TB) leukemia) was greater than 100 µM and the GI50 (COLO 205 colon) was greater than 100 µM. The TGI (COLO 205 colon) was greater than 100 µM, the GI50 (NCI-H226 lung) was greater than 100 µM and the TGI (NCI-H226 lung) was greater than 100 µM. It also gave a GI50 (SK-MEL-28 melanoma) greater than 100 µM, a TGI (SK-MEL-28 melanoma) greater than 100 µM and a GI50 (KM20L2 colon) greater than 100 µM. The TGI (KM20L2 colon) was greater than 100 µM, the GI50 (U251 CNS) was greater than 100 µM and the TGI (U251 CNS) was greater than 100 µM. It also gave a GI50 (M14 melanoma) greater than 100 µM, a TGI (M14 melanoma) greater than 100 µM and a GI50 (TK-10 renal) greater than 100 µM. For the same molecule, the TGI (TK-10 renal) was greater than 100 µM, the GI50 (KM12 colon) was greater than 100 µM and the TGI (KM12 colon) was greater than 100 µM. It also gave a GI50 (LXFL 529 NSCLC) greater than 100 µM, a TGI (LXFL 529 NSCLC) greater than 100 µM and a GI50 (UO-31 renal) greater than 100 µM. For the same molecule, the TGI (UO-31 renal) was greater than 100 µM, the GI50 (OVCAR-8 ovarian) was greater than 100 µM and the TGI (OVCAR-8 ovarian) was greater than 100 µM. The GI50 (RXF 393 renal) was greater than 100 µM, the TGI (RXF 393 renal) was greater than 100 µM and the GI50 (SW-620 colon) was greater than 100 µM. The TGI (SW-620 colon) was greater than 100 µM, the GI50 (HCT-15 colon) was greater than 100 µM and the TGI (HCT-15 colon) was greater than 100 µM. It also gave a GI50 (OVCAR-5 ovarian) greater than 100 µM, a TGI (OVCAR-5 ovarian) greater than 100 µM and a GI50 (LOX IMVI melanoma) greater than 100 µM. It also gave a TGI (LOX IMVI melanoma) greater than 100 µM, a GI50 (UACC-257 melanoma) greater than 100 µM and a TGI (UACC-257 melanoma) greater than 100 µM. It also gave a GI50 (SK-MEL-5 melanoma) greater than 100 µM, a TGI (SK-MEL-5 melanoma) greater than 100 µM and a GI50 (NCI-H522 lung) greater than 100 µM. The TGI (NCI-H522 lung) was greater than 100 µM, the GI50 (DLD-1 colon) was greater than 100 µM and the TGI (DLD-1 colon) was greater than 100 µM. For the same molecule, the GI50 (NCI-H322M lung) was greater than 100 µM, the TGI (NCI-H322M lung) was greater than 100 µM and the GI50 (SNB-75 CNS) was greater than 100 µM. It also gave a TGI (SNB-75 CNS) greater than 100 µM, a GI50 (HOP-92 NSCLC) greater than 100 µM and a TGI (HOP-92 NSCLC) greater than 100 µM. It also gave a GI50 (K-562 leukemia) greater than 100 µM, a TGI (K-562 leukemia) greater than 100 µM and a GI50 (NCI-H460 lung) greater than 100 µM. The TGI (NCI-H460 lung) was greater than 100 µM, the GI50 (ACHN renal) was greater than 100 µM and the TGI (ACHN renal) was greater than 100 µM. It also gave a GI50 (CCRF-CEM leukemia) greater than 100 µM, a TGI (CCRF-CEM leukemia) greater than 100 µM and a GI50 (UACC-62 melanoma) greater than 100 µM. For the same molecule, the TGI (UACC-62 melanoma) was greater than 100 µM, the GI50 (MALME-3M melanoma) was greater than 100 µM and the TGI (MALME-3M melanoma) was greater than 100 µM. The GI50 (SR leukemia) was greater than 100 µM, the TGI (SR leukemia) was greater than 100 µM and the GI50 (SK-OV-3 ovarian) was greater than 100 µM. It also gave a TGI (SK-OV-3 ovarian) greater than 100 µM, a GI50 (IGROV1 ovarian) greater than 100 µM and a TGI (IGROV1 ovarian) greater than 100 µM. It also gave a GI50 (SF-268 CNS) greater than 100 µM, a TGI (SF-268 CNS) greater than 100 µM and a GI50 (OVCAR-3 ovarian) greater than 100 µM. It also gave a TGI (OVCAR-3 ovarian) greater than 100 µM, a GI50 (DMS 114 small cell lung) greater than 100 µM and a TGI (DMS 114 small cell lung) greater than 100 µM. It also gave a GI50 (SK-MEL-2 melanoma) greater than 100 µM, a TGI (SK-MEL-2 melanoma) greater than 100 µM and a GI50 (HCT-116 colon) greater than 100 µM. For the same molecule, the TGI (HCT-116 colon) was greater than 100 µM, the GI50 (MOLT-4 leukemia) was greater than 100 µM and the TGI (MOLT-4 leukemia) was greater than 100 µM. It also gave a GI50 (NCI-H23 lung) greater than 100 µM, a TGI (NCI-H23 lung) greater than 100 µM and a GI50 (SN12C renal) greater than 100 µM. It also gave a TGI (SN12C renal) greater than 100 µM, a GI50 (SF-295 CNS) greater than 100 µM and a TGI (SF-295 CNS) greater than 100 µM. The GI50 (EKVX NSCLC) was greater than 100 µM, the TGI (EKVX NSCLC) was greater than 100 µM and the GI50 (OVCAR-4 ovarian) was greater than 100 µM. It also gave a TGI (OVCAR-4 ovarian) greater than 100 µM, a GI50 (DMS 273 small cell lung) greater than 100 µM and a TGI (DMS 273 small cell lung) greater than 100 µM. It also gave a GI50 (RPMI-8226 leukemia) greater than 100 µM, a TGI (RPMI-8226 leukemia) greater than 100 µM and a GI50 (HCC-2998 colon) greater than 100 µM. It also gave a TGI (HCC-2998 colon) greater than 100 µM, a GI50 (HOP-62 NSCLC) greater than 100 µM and a TGI (HOP-62 NSCLC) greater than 100 µM.
